# According to BindingDB's records for doi:10.1016/j.bmcl.2018.01.030 (Osaka University, 2018):
# Assay: Binding affinity to 14-3-3zeta (unknown origin) assessed as stabilization of protein-protein interaction between 14-3-3zeta and fluorescein-labeled phosphopeptide by measuring Kd of FAM-KRSHpSV-COOH at 40 uM by fluorescence polarization assay (Rvb = 470 +/- 20 nM)
row,Kd [nM],Compound
1,18,COC[C@H]1CC[C@@H]2/C1=C\[C@@]1(C)CCC(C(C)C)=C1[C@@H](O[C@H]1O[C@@H]3COC(C)(C)O[C@H]3[C@H](O)[C@H]1O)[C@H](O)[C@@H]2C
2,360,COC[C@@]1(OC)CC[C@@H]2/C1=C\[C@@]1(C)CCC(C(C)C)=C1[C@@H](O[C@H]1O[C@@H]3COC(C)(C)O[C@H]3[C@H](O)[C@H]1O)[C@H](O)[C@@H]2C

row,Compound,Kd [nM]
1,COC[C@H]1O[C@H](O[C@@H]2C3=C(C(C)C)CC[C@]3(C)/C=C3\[C@@H](CC[C@]3(O)COC)[C@@H](C)[C@H]2O)[C@H](O)[C@H]2O[C@H]3O[C@]21O[C@@]3(C)[C@@H]1CO1,9
